Assay results from US20250270394A1, “CYCLODEXTRIN INCORPORATED SILICONE MATERIALS AND THEIR USE AS CARRIERS FOR ACTIVES” (WACKER CHEMIE AG, priority 2022, published 2025).

Procedure: Such a homogneous mixture can also be formed by using a magnetic stirrer, overhead stirrer, Speedmixer™ or similar mixing techniques.
Above experiment was repeated with a native γ-CD CAVAMAX® W8, which was not modified with silylation.
Silylated β-cyclodextrin CH77 with low number of silyl groups (7.95 TMS and 3.23 VDMS groups on average) was evaluated to check the solubility in DM 5 at 10 wt. %.

For “trimethylsilyl-vinyldimethylsilyl γ-cyclodextrin [CH60]”, the “solubility in DM 5 (appearance of mixture)” value was “clear, homogeneous, transparent solution”.
